One molecule from ChEMBL document CHEMBL4346663, “N-Cinnamoylanthranilates as human TRPA1 modulators: Structure-activity relationships and channel binding sites” (Eur J Med Chem, 2019) can be followed below.

Amino acid sequences for entries named in this document (tags omitted).
Transient receptor potential cation channel subfamily A member 1 (Homo sapiens), O75762, UniProt O75762, whole entry F944A: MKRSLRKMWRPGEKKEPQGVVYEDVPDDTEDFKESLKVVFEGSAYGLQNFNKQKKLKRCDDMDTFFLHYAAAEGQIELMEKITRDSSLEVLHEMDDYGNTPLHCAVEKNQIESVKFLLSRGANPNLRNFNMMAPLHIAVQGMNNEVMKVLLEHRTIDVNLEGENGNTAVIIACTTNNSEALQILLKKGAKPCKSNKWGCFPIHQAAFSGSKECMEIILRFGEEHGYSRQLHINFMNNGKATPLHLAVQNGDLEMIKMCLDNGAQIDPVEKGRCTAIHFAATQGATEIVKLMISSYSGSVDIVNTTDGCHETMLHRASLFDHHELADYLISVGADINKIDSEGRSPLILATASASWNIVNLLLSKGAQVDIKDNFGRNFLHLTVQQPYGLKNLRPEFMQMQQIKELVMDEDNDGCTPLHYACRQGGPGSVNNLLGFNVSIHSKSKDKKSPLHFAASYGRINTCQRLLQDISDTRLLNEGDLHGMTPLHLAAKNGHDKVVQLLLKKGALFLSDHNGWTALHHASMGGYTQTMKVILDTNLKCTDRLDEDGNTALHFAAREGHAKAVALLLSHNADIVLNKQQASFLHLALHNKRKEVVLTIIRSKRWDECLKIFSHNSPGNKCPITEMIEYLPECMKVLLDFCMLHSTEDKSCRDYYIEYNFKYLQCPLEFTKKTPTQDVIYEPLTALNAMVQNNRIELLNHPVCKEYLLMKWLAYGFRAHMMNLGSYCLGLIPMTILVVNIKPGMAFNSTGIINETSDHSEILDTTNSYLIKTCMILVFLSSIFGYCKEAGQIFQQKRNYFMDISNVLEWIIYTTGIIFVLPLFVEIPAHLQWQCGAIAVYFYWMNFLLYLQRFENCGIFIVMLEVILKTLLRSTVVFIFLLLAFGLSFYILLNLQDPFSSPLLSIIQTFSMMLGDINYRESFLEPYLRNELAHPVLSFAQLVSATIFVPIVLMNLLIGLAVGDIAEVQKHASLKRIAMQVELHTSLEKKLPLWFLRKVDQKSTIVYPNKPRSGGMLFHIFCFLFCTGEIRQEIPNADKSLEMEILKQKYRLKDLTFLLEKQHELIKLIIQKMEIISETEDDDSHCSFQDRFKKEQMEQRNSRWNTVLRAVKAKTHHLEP
Transient receptor potential cation channel subfamily A member 1 (Homo sapiens), O75762, UniProt O75762, whole entry F909A: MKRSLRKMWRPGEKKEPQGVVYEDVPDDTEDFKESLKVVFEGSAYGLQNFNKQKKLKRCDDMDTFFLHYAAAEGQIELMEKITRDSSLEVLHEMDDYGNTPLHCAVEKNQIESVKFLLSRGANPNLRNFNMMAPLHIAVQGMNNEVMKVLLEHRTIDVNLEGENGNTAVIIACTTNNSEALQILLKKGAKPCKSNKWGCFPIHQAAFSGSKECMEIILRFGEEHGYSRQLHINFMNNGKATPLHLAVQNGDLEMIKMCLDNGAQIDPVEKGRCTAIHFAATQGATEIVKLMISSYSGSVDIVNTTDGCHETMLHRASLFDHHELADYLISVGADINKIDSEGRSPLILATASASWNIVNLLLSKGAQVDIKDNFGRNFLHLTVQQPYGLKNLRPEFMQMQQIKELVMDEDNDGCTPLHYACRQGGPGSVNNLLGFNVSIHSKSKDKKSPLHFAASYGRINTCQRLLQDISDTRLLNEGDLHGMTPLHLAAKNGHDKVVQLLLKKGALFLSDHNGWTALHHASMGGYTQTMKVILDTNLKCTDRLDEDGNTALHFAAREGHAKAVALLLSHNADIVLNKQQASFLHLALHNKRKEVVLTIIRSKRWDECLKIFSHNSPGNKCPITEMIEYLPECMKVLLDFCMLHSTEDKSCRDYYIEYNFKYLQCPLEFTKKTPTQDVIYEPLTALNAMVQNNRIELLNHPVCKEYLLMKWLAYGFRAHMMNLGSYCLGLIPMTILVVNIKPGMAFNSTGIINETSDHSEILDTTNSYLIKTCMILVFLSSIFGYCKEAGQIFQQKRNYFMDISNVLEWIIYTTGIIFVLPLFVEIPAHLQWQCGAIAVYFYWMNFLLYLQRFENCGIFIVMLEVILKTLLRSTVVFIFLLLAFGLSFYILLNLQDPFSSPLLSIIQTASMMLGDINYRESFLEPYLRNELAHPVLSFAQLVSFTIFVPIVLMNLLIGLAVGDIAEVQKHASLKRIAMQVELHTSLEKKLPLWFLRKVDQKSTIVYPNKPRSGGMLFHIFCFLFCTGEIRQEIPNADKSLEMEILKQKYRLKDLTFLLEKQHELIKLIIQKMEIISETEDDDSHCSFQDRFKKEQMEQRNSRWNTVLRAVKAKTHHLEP

Test [1] has as its system Transient receptor potential cation channel subfamily A member 1 (Homo sapiens), O75762 [F944A]. In words: Antagonist activity at human TRPA1 Phe944Ala mutant expressed in HEK293 cells assessed as Ca2+ influx at 100 uM by fluorescence assay. Type of test: cell-based. The procedure, abridged: (§1)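 hTRPA1 F909A or F944A mutant HEK293 stable clones, loaded with Fluo-4AM (2 µM, 45 min, room temperature). Compound pre-incubated 10 min before the standard agonist was added. FlexStation fluorescence (485/538 nm). ΔRFU normalized to the standard agonist response set at 100 %, after DMSO vehicle subtraction.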

The subject of test [2] is Transient receptor potential cation channel subfamily A member 1 (Homo sapiens), O75762 [F909A]. In words: Antagonist activity at human TRPA1 Phe909Ala mutant expressed in HEK293 cells assessed as Ca2+ influx at 100 uM by fluorescence assay. Type of test: cell-based. In short, it runs like this: as §1

SMILES strings stand for the structures. Activity calls are given as the source filed them. No cut-off for these calls is given here.

`CC(=C\c1ccc(Cl)cc1)/C(C)=N/O` [AP18 5]: the result in test [1] and in test [2] was inactive.
